US10011602B2, “Immunological reagents and uses therefor” (THE UNIVERSITY OF MELBOURNE, priority 2012, dated 2018)

Key:
[1] = test system: human PBMC MAIT cells; test: MR1 tetramer staining of human PBMCs (flow cytometry); type: cell-based; details: PE-streptavidin tetramers; D5, CD161 co-staining
Method: Biotinylated MR1 (produced in either of the 2 methods mentioned above) is used to make tetramers by the addition of biotinylated MR1 to PE Streptavidin (#554061, BD Pharmingen) in a 4:1 molar ratio. PE Streptavidin is added sequentially in 1/10 aliquots to biotinylated MR1 at 10 minute intervals to ensure efficient tetramization.
Human MAIT cells are identified as being D5-positive (D5 mAb stains Vα7.2,-positive T cells; Vα7.2 is the invariant Vα-chain utilized by human MAIT cells) and CD161-positive. Human PBMCs were stained with CD3-PE-Cy7, CD8-PerCP, CD4-APC-Cy7, CD161-APC specific mAbs; as well as the anti-Vα7.2-FITC mAb D5 (generated in-house; human MAIT cells utilize the Vα7.2 alpha chain) and PE-labeled tetramers of mouse MR1-β2m-acetyl-6-Formyl Pterin (mouse MR1 had been refolded with either 6-formyl pterin or acetyl-6-formyl pterin). 10-20% of D5-positive, CD161-positive cells stained with tetramers of mouse MR1-β2m-acetyl-6-Formyl Pterin, depending on source of patient PBMCs.

[2] = test system: Jurkat-MAIT-TRBV6-1 cell line; test: MR1 tetramer staining of Jurkat-MAIT-TRBV6-1 cell line; type: cell-based, human
Excerpt: Wild-type human MR1 containing a C-terminal cysteine can be refolded with the addition of 5-amino-6-D-ribitylamino-uracil and pyruvaldehyde, using the standard refolding conditions described above, and then purified using the standard methods also described above. MR1 refolded in this way has rRL-6-CH2OH bound as determined by X-ray crystallography structural studies, and by electrospray ionization time-of-flight (ESI TOF) mass spectrometry. To produce tetramers, this MR1-rRL-6-CH2OH is reduced for 15 minutes by the addition of DTT to 5 mM final concentration, following which excess DTT is removed by passage over a PD-10 column (GE Healthcare) in PBS, and concentrated in a VIVASPIN 6 (Sartorius) centrifugal concentrator to 200 ul. MR1-rRL-6-CH2OH is then biotinylated with Maleimide-PEG2 biotin (Thermoscientific) at a 30:1 molar excess of biotin:protein at 4° C. in the dark overnight. Excess biotin is removed by passing biotinylated protein through an S200 10/300 GL (Healthcare) gel filtration column in Tris buffered saline (pH 8.0), prior to formation of tetramers by addition to PE Streptavidin (#554061, BD Pharmingen). […]

[3] = biological target: MAIT TCR (TRBV6-1); test: Surface plasmon resonance (SPR) of MR1-ligand complexes with soluble wild-type MAIT TCR; type: binding, human; details: wild-type MAIT TCR utilizing TRBV6-1 (6-1); read-out: Kd (dissociation constant), SPR
Excerpt: Wild-type human MR1 containing a C-terminal cysteine can be refolded with the addition of 5-amino-6-D-ribitylamino-uracil and pyruvaldehyde, using the standard refolding conditions described above, and then purified using the standard methods also described above. MR1 refolded in this way has rRL-6-CH2OH bound as determined by X-ray crystallography structural studies, and by electrospray ionization time-of-flight (ESI TOF) mass spectrometry. To produce tetramers, this MR1-rRL-6-CH2OH is reduced for 15 minutes by the addition of DTT to 5 mM final concentration, following which excess DTT is removed by passage over a PD-10 column (GE Healthcare) in PBS, and concentrated in a VIVASPIN 6 (Sartorius) centrifugal concentrator to 200 ul. MR1-rRL-6-CH2OH is then biotinylated with Maleimide-PEG2 biotin (Thermoscientific) at a 30:1 molar excess of biotin:protein at 4° C. in the dark overnight. Excess biotin is removed by passing biotinylated protein through an S200 10/300 GL (Healthcare) gel filtration column in Tris buffered saline (pH 8.0), prior to formation of tetramers by addition to PE Streptavidin (#554061, BD Pharmingen). […] In the same manner human MR1 containing a C-terminal cysteine can be refolded with the addition of 5-amino-6-D-ribitylamino-uracil, and subsequently purified by fast protein liquid chromatography (FPLC) to yield MR1 refolded with a novel ribityllumazine metabolite, reduced 7-hydroxy-ribityllumazine (rRL-7-OH). The identity of rRL-7-OH bound to MR1 was confirmed by ESI TOF mass spectrometry, and by determining its structure using X-ray crystallography. The identity of rRL-7-OH bound to MR1 was also confirmed by refolding wild-type MR1 with 5-amino-6-D-ribitylamino-uracil and ^13C-glycolaldehyde to yield MR1-^13C-rRL-7-OH. […] In addition, tetramers have been prepared from mouse wild-type MR1-rRL-6-CH2OH (containing a C-terminal cysteine), refolded and purified using 5-amino-6-D-ribitylamino-uracil and pyruvaldehyde.

[4] = test system: soluble MAIT TCR; test: Complexation of MR1-ligand with soluble MAIT TCR; type: binding, human; details: separated from monomeric MAIT TCR and uncomplexed MR1
Excerpt: For efficient production of MR1 tetramers with the potent stimulating ligand rRL-6-CH2OH, mutant MR1 containing a Lysine-43-Alanine mutation (Lys43Ala-MR1, and containing a C-terminal cysteine) is first refolded (in the absence of a ligand: “empty”, but otherwise using the standard refolding conditions described above, and then purified using the standard methods described previously. Refolded and purified empty Lys43Ala-MR1 can subsequently be loaded with rRL-6-CH2OH in the following manner: empty Lys43Ala-MR1 is incubated in the presence of 130× molar excess of rRL-6-CH2OH for 4 hours at room temperature in the dark. […] Additionally, novel re-arranged TRAV1-2-TRAJ12 and TRAV1-2-TRAJ20 alpha chains have been detected in tetramer-positive PBMCs. […]
Wild-type human MR1 containing a C-terminal cysteine can be refolded with the addition of 5-amino-6-D-ribitylamino-uracil and pyruvaldehyde, using the standard refolding conditions described above, and then purified using the standard methods also described above. MR1 refolded in this way has rRL-6-CH2OH bound as determined by X-ray crystallography structural studies, and by electrospray ionization time-of-flight (ESI TOF) mass spectrometry. […]

[5] = biological target: mutant Y95F MAIT TCR (α-chain Y95F mutation; 6-1 Y95F); test: Surface plasmon resonance (SPR) of MR1-ligand complexes with mutant Y95F MAIT TCR; type: binding, human; details: mutant Y95F MAIT TCR (6-1 Y95F)

Kd [3] [µM]	Substance	Tetramer staining of human PBMC MAIT cells [1]	other results
	human Leucine151Alanine MR1 refolded with 6-FP: tetramers from human Leucine151Alanine MR1 (BirA peptide-tagged) refolded with 6-FP	stain a proportion	
	MR-rRL-7-OH tetramers: PE-streptavidin tetramers of human MR1-rRL-7-OH	identify the same CD161-positive population	Tetramer staining of Jurkat-MAIT-TRBV6-1 cell line [2]: comparable staining
1.65	MR1-rRL-6-CH2OH: wild-type human MR1 (C-terminal cysteine) refolded with 5-amino-6-D-ribitylamino-uracil and pyruvaldehyde, rRL-6-CH2OH bound		Complexation with soluble MAIT TCR [4]: capable of complexation
	rRL-6-CH2OH-loaded Lys43Ala-MR1 tetramers: PE-streptavidin tetramers of human Lys43Ala-MR1 loaded with rRL-6-CH2OH	identify a CD161-positive, D5-positive	
	human MR1-rRL-6-CH2OH tetramers: PE-streptavidin tetramers of human wild-type MR1-rRL-6-CH2OH		Tetramer staining of Jurkat-MAIT-TRBV6-1 cell line [2]: comparable staining
> 300	MR1-6-FP: MR1 refolded with 6-FP; negative control in SPR		Kd (dissociation constant), SPR [5]: N.B
	Lys43Ala-MR1 loaded with rRL-6-CH2OH: human Lys43Ala mutant MR1 refolded empty, then loaded with rRL-6-CH2OH		Complexation with soluble MAIT TCR [4]: capable of complexation
5.64 ± 0.4	MR1-rRL-7-OH: wild-type human MR1 refolded with rRL-7-OH		Kd ([5]; read-out: Kd (dissociation constant), SPR): 48.2 ± 3.6 µM
